Target: T1, Phosphodiesterase 3A (Sus scrofa, UniProt Q9XSW7)
T1 sequence (Q9XSW7 whole entry): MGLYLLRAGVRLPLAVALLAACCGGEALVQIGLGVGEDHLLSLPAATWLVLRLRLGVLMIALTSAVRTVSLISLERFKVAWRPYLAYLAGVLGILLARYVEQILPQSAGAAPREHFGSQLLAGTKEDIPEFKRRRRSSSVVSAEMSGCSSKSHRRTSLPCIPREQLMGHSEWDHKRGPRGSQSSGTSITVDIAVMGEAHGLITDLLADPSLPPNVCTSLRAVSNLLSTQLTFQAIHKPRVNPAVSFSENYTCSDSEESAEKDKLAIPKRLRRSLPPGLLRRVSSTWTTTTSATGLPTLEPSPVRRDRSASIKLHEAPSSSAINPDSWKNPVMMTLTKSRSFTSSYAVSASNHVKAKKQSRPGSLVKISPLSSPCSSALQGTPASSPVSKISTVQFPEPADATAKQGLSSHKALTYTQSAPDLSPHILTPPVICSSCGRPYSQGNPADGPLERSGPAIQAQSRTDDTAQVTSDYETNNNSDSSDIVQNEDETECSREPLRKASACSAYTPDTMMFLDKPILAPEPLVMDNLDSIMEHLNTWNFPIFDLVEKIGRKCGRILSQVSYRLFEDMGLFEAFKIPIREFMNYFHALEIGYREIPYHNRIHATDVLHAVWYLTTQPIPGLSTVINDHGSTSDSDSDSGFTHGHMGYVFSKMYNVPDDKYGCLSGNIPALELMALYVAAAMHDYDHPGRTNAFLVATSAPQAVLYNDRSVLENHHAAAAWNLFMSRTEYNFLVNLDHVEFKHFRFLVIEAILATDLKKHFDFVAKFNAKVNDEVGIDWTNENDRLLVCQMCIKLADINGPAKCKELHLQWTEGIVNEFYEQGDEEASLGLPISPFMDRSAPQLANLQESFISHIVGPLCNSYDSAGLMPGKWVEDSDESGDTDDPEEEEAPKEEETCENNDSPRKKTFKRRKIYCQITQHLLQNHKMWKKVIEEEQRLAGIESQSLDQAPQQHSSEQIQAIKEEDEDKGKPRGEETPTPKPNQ
Assay: Inhibition of cGMP-inhibited phosphodiesterase from porcine coronary arteries

IC50: > 100 µM
SMILES: COc1cc2c(NCc3ccc4c(c3)OCO4)ncnc2c(OC)c1OC
